Measured affinities in a library of Ab-14 heavy chain variants

Reference: Li et al. 2023, doi:10.1038/s41467-023-39022-2. File: FLAb, binding data.

Binding partner: SARS-CoV-2 spike HR2 peptide, sequence PDVDLGDISGINAS.

Parent scFv Ab-14: VH joined to VL by a 15-residue (Gly4Ser)3 linker. Changes lie in the heavy chain CDRs alone.
VH: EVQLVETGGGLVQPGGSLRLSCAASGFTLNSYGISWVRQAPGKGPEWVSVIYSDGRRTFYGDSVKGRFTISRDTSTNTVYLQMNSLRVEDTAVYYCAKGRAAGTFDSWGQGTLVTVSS
VL: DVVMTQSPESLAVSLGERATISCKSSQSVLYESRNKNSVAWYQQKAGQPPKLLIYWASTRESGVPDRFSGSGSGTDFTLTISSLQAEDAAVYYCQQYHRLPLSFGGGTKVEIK

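The parent was found by panning a naive human phage display library on the peptide. Designed CDR sequences, proposed from the first random library and measured here. Group labels follow the data file (Ctrl: baseline library sampled from a position-specific scoring matrix, with some repeated check sequences; Rand: our label for a block that the file lists under HC and that is probably the random mutants of the ten best first-round binders; En: ensemble of fine-tuned language models; GP: Gaussian process model; GPLM: also part of the Gaussian process libraries; HC: hill climbing; Gen: genetic algorithm; Gibbs: Gibbs sampling; a sequence that several methods proposed may carry one label only). AlphaSeq pools MATa yeast showing the antibodies with MATalpha yeast showing the peptide. Mating (16 h, 30 °C) was followed by selection of diploids and sequencing of their barcodes. Read counts were normalised to the haploid input and turned into Kd by a linear fit to BCL2-family pairs of known affinity, for each replicate. Each pool was mated in six replicate cultures.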

The parent's heavy chain CDRs are GFTLNSYGIS, VIYSDGRRTFYGDSVK, GRAAGTFDS; each variant's own CDRs replace them letter for letter.
The Kd shown is the geometric mean over detected replicates; a lower Kd is a better binder.
"no signal" marks a missing value. The strain was present, yet no cells mated with the target were sequenced in any replicate, which points to weak or no binding.
The parent sequence was in this pool as ten entries: three were never detected, three once, and four in most replicates, with averages from 2.2 nM to 240 nM.
In the paper, a design with two or fewer of six values counts as a poor binder.
Background: pairings of all heavy chain designs with three empty control strains gave a value in 1% of cases (median 120 nM, 5th percentile 7.0 nM). Values in that range, when seen in few replicates, are hard to tell from nonspecific mating.
Values of this round are not directly comparable with the first-round values of the same sequences.

CDR-H1,CDR-H2,CDR-H3,group,apparent Kd,detected
GFGIEEYGIS,VIYADGVRKAYQNSFK,GEVGGTFVN,En_Gibbs,530 pM,6/6
GFDLDEYGIS,VIYADGMRTAYADDVK,GNNAGTFDT,En_Gen,260 pM,6/6
GFTINSYGIS,VIYSDGRRTFYGDSVK,GQAKGTFVT,Ctrl,no signal,0/6
GFTLASYGIS,VIYSDGRRTFYGDSVK,GRAAGTFDS,Ctrl,1.4 µM,1/6
GFDLNEYGIS,VIYADGSRTAYADKVK,GENAGTFDV,En_Gen,740 pM,6/6
GFDLNEYGIS,VIYADGMRTFYADDVK,GNQAGTFDV,En_Gen,310 pM,6/6
GFDLNEYGIS,VIYADGRRTFYADNVK,GEVAGTFDQ,En_HC,400 pM,6/6
GFGLNEYGIS,VIYADGRRTFYGDSVK,GRAAGTFIS,GP_HC,160 nM,1/6
GFNLDEYGIS,VIYADGTRTNYLDTVK,GVTGGTFIQ,En_Gibbs,no signal,0/6
SFTLESYGIS,VIYADGRRTFYGDSVK,GRAAGTFKS,GP_HC,no signal,0/6
GFTLNSYGIS,VIYSDGRRTFYGDQVK,GRAKGTFDS,Ctrl,no signal,0/6
GFELNSYGIS,VIYSDGRRTFYGDSVK,GHQAGTFDS,GP_Gen,9.4 nM,6/6
GFSLNDYGIS,VIYSDGRRTFYGDSVK,GRHAGTFIS,GPLM_HC,no signal,0/6
GFDIEEYGIS,VIYADGLRQYYKDNFK,GWNDGTIAV,En_Gibbs,no signal,0/6
GFELNSYGIS,VIYSDGRRTFYADSVK,GKNAGTFDS,GP_Gen,17 nM,6/6
GFSIDEYGIS,VIYADGTRTFYTDNVK,GLIGMFCDI,En_Gibbs,850 pM,6/6
GFDLNEYGIS,VIYADGRRTYYIDSVK,GNEAGTFDS,En_HC,230 pM,6/6
GFDLNEYGIS,VIYADGSRTAYSDSVK,GEVAGTFDL,En_Gen,490 pM,6/6
GFTLLSYGIS,VIYSDGRRTFYGDSTK,GRASLTFDS,Ctrl,52 nM,6/6
GFDLDEYGIS,VIYADGKRTFYKDSVK,GSNAGTFDM,En_HC,490 pM,6/6
GFTLDSYGIS,VIYSDGRRTFYDDSVK,GQVAGTFDS,GP_HC,490 pM,6/6
GFDLNEYGIS,VIYADGKRTRYSNNVK,GGVGGIGLS,En_Gibbs,87 nM,1/6
GFSIDEYGIS,VIYADGLRQFYTNAVK,GMAAGTFDM,En_Gibbs,1.7 nM,6/6
GFDLEDYGIS,VIYADGMRTAYSDSVK,GNEAGTFDV,En_Gen,730 pM,6/6
GFSLNTYGIS,VIYSDGRRTFYGDSVK,GKAAGTFDS,GPLM_Gen,4.6 nM,4/6
GFTLNDYGIS,VIYSDGRRTFYDGSVK,GRATGTFDS,Ctrl,no signal,0/6
GFTLTQYGIS,VIYSDGRRTFYGDSVK,GRAAGTFDS,Ctrl,20 nM,6/6
GFDLNEYGIS,VIYADGMRTYYVDSVK,GENAGTFDV,En_Gen,580 pM,6/6
GFTLNEYGIS,VIYSDGRRTFYQDSVK,GRFAGTFDR,GP_HC,10 nM,6/6
GFTLQSYGIS,VIYSDGRRTFYGDSVK,GREAGTFDS,Ctrl,1.6 nM,3/6

Continued, with the values leading:

apparent Kd,detected,CDR-H1,CDR-H2,CDR-H3,group
680 pM,6/6,GFDLNEYGIS,VIYSDGRRTFYGDSVK,GRAAGTFDT,GP_HC
no signal,0/6,GFDLNSYGIS,VIYSDGRRTFYGDSVK,GRANVWFNS,Rand
2.9 nM,1/6,GFQLNSYGIS,VIYSDGRRTFYIDSVK,GNVAGTFDS,GP_Gibbs
590 pM,6/6,GFDLNEYGIS,VIYADGVRTFYADSVK,GQNAGTFDI,En_Gen
1.5 nM,6/6,GFELNSYGIS,VIYSDGRRTFYCDSVK,GQTAGTFDS,GP_Gen
350 pM,5/6,GFDLNEYGIS,VIYADGRRTYYADSVK,GNQAGTFDS,En_HC
no signal,0/6,GFDLEDYGIS,VIYADGVRTAYSQNSK,GENGGALYI,En_Gibbs
no signal,0/6,GFSLNQYGIS,VIYSDGRRTFYSDSVK,GRAAGHFDS,GPLM_HC
no signal,0/6,GFNIEEYGIS,VIYADGRRTAYAEPVK,GDSGGTIDT,En_Gibbs
1.3 nM,6/6,GFDLNSYGIS,VIYSDGRRTFYGDSVK,GQTAGTFDD,GP_Gen
29 nM,6/6,GFTLDSYGIS,VIYSDGRRTFYSDSVK,GRAGGTFDV,GP_HC
1.7 nM,6/6,GFDLDEYGIS,VIYADGVRTVYADSVK,GENAGTFDV,En_Gen
220 pM,6/6,GFDLDEYGIS,VIYADGRRTFYSDSVK,GSVAGTFDV,En_HC
no signal,0/6,GFELNSYGIS,VIYSDGVRTFYGDSVK,GRAPLTFDS,Ctrl
2.5 nM,6/6,GFDLDEYGIS,VIYADGRRTFYADSVK,GETAGTFFS,En_HC
7.2 nM,6/6,GFDLNSYGIS,VIYSDGRRTFYSDRVK,GEAAGTFDK,GP_Gibbs
1.1 nM,6/6,GFQLNEYGIS,VIYSDGRRTFYADSVK,GRNAGTFDS,GP_HC
3.9 nM,6/6,GFKLNSYGIS,VIYSDGRRTFYSDSVK,GKTAGTFDS,GPLM_Gibbs
no signal,0/6,GFTLMSYGIS,VIYSDGRRTFYGDSVK,GRWAGPFDS,Ctrl
1.1 nM,6/6,GFDLNEYGIS,VIYADGVRTAYADSVK,GQVAGTFDM,En_Gen
no signal,0/6,GFTLNSYGIS,VIYSDGRRTAYHDSVK,GMAAGTFHS,Ctrl
no signal,0/6,GFTLNEYGIS,VIYSDGRRTFYTDSVK,GRFAGVFDS,Rand
1.2 nM,6/6,GFDLNMYGIS,VIYSDGRRTFYDDSVK,GKAAGTFDS,GP_Gibbs
130 pM,6/6,GFDLNEYGIS,VIYADGQRTFYIDSVK,GEIAGTFDV,En_HC
350 pM,6/6,GFDLNEYGIS,VIYADGVRTAYADSVK,GTVAGTFDL,En_Gen
2.7 nM,6/6,GFTLNSYGIS,VIYSDGLRTFYSDSVK,GQTAGTFDS,GP_Gibbs
no signal,0/6,GFSINEYGIS,VIYADGNRSAYIDAVK,GDSGSSFLE,En_Gibbs
no signal,0/6,GFTLNSYGIS,VIYSDGRRTFYGDSVD,GLAGGTFDV,Ctrl
120 pM,6/6,GFDLNEYGIS,VIYADGMRTAYAESVK,GNVAGTFDV,En_Gen
4.6 nM,6/6,GFTLNEYGIS,VIYSDGHRTFYGDSVK,GRAAGTFDS,Ctrl

For reference, 4 entries of the list once more:

CDR-H1,CDR-H2,CDR-H3,group,apparent Kd,detected
GFSIDEYGIS,VIYADGTRTFYTDNVK,GLIGMFCDI,En_Gibbs,850 pM,6/6
GFDLNEYGIS,VIYADGKRTRYSNNVK,GGVGGIGLS,En_Gibbs,87 nM,1/6
GFELNSYGIS,VIYSDGVRTFYGDSVK,GRAPLTFDS,Ctrl,no signal,0/6
GFTINSYGIS,VIYSDGRRTFYGDSVK,GQAKGTFVT,Ctrl,no signal,0/6